Data as given in article PMC10722540, “Red Wine Inspired Chemistry: Hemisynthesis of Procyanidin Analogs and Determination of Their Protein Precipitation Capacity, Octanol–Water Partition, and Stability in Phosphate-Buffered Saline” (Journal of Agricultural and Food Chemistry, 2023).

Assay: Octanol–water partition, shake-flask method
Assay type: physicochemical
Settings: 200 μM, n-octanol/water, 2 h mixing; SE in parentheses
Protocol: The shake-flask method was done using 2 mL Eppendorf tubes and three replicates. […] After mixing, aliquots of 500 μL were transferred to new Eppendorf tubes, and 500 μL of n-octanol was added that had been saturated with water. The solvent systems were mixed in a vortex mixer for 2 h, and then both the water and the n-octanol layers as well as the initial water solution were analyzed by UPLC–DAD using the shorter phenyl column (section 2.4). The chromatograms were integrated using TargetLynx software (version 4.2), and the octanol–water partition coefficient, log P, was calculated as the log10 of the ratio of area in n-octanol phase to the area in water phase. Recovery % was calculated by summing the areas in both phases and dividing the summation with the area measured from the initial water phase.

epicatechin [Compound 16, reference compound]
KOW: 1.44 (0.01)
log P (log10KOW): 0.16 (0.00)
